Molecular target: T1, RFK module of CaFADS (Corynebacterium ammoniagenes, UniProt Q59263, L183M)
T1 construct: a truncated CaFADS variant consisting in the isolated C-terminal RFK module; made in house; host or cells: E. coli BL21(DE3)
Experiment: Isothermal titration calorimetry of binary and ternary interactions
Assay type: binding
Description: Isothermal titration calorimetry (ITC) experiments were performed to elucidate the order in which ligands bind to the enzyme, as well as the binding inhibition effects from the thermodynamic point of view. Experiments were carried out in an AutoITC200 (MicroCal) that was thermostated at 25 °C. […] Titrations with FLV ligands of mixtures that contained the enzyme prebound with the ANP ligand were also carried out, as well as ANP titrations of mixtures of the enzyme saturated with FLV ligands. In these experiments, the titration was performed by stepwise injecting the titrating ligand. Up to 19 injections of 2 μL each were added to the calorimetric sample cell and mixed at a stirring speed of 1000 r.p.m. Ligands and protein were dissolved in 20 mM PIPES, pH 7.0, either in the presence or absence of 0.8 mM MgCl2, and degassed prior to titration. The association constant (K a), the enthalpy change (ΔH) and the binding stoichiometry (N) were obtained through a nonlinear least squares regression of the data using a homemade model for one or two independent binding sites, which was implemented in Origin 7.0 (OriginLab) as previously described, [20]. The entropic contribution (-TΔS), the Gibbs free energy (ΔG) and the dissociation constant (K d) were obtained through essential thermodynamic equations.
Experiments were performed in triplicate.

Protein sequences, listed by entry. Tags and fused reporters are not part of them. Residues count along the entry.
UniProt Q59263, 183-338 L183M: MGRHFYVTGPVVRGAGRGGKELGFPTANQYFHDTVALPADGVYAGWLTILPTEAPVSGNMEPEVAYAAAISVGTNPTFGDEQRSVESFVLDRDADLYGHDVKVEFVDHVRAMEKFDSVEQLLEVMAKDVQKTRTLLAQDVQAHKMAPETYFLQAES

[1] = initial mixture RFK:FMN, 0.0 mM MgCl2
[2] = initial mixture RFK:FMN, 0.8 mM MgCl2
[3] = initial mixture RFK:RF, 0.0 mM MgCl2

Nc1ncnc2c1ncn2[C@@H]1O[C@H](COP(=O)(O)OP(=O)(O)OP(=O)(O)O)[C@@H](O)[C@H]1O [ATP]
Kd [1]: 0.5 µM | ΔG [1]: -8.6 kcal/mol | Kd [2]: 0.04 µM | ΔG [2]: -10.1 kcal/mol | Kd [3]: 50.4 µM | ΔG [3]: -5.9 kcal/mol | ΔG (initial mixture RFK, 0.0 mM MgCl2): -6.5 kcal/mol | Kd (initial mixture RFK, 0.0 mM MgCl2, 20 mM PIPES, pH 7.0, 25 °C): 16.3 µM | Kd (initial mixture RFK, 0.8 mM MgCl2, 20 mM PIPES, pH 7.0, 25 °C): 28.7 µM

From article PMC5544777, “Kinetics and thermodynamics of the protein-ligand interactions in the riboflavin kinase activity of the FAD synthetase from Corynebacterium ammoniagenes” (Scientific Reports, 2017)
